Test results taken from patent US20040018193A1 (priority 2002, published 2004).

What was measured:
[1] = test system: Colon-26 cells; parameters: species or system Balb/c mice; details: mouse, in vivo
[2] = test system: primary murine splenocytes; parameters: species or system Balb/c mice; details: mouse, in vivo

For IL-2: cytokine, the “cytolysis by NK/NKT cells” value [1] was “significant increases” and the CD25 marker expression [2] was “significant activation”.
